# Yeast mating assay 2: variants of the scFv Ab-95

Target peptide (SARS-CoV-2 spike, HR2 region): PDVDLGDISGINAS

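Phage display of a naive human antibody library on the peptide gave the parent. AAYL52 was designed without a model: most single CDR substitutions and a random sample of double and triple ones. Affinity was read by AlphaSeq, a pooled yeast mating assay with surface-displayed partners. After mating in shaken culture at 30 °C for 16 h, diploids were selected and their barcode pairs sequenced. The ratio of observed to expected reads was calibrated, replicate by replicate, on BCL2-family standards whose Kd was known from biolayer interferometry. There are three technical replicates.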

The variants keep the heavy chain, the linker and the frameworks of Ab-95 (scFv order VH, the linker GGGGSGGGGSGGGGS, VL).
VH: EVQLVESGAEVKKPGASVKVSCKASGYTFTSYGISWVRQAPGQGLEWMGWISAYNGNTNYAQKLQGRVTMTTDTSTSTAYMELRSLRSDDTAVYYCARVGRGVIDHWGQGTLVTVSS
VL: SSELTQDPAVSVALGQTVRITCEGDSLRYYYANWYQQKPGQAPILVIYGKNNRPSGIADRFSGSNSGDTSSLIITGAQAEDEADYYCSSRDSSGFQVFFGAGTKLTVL

Each variant's VL is given in full. Values are log10 of the apparent Kd in nM; lower means stronger binding. "nd" means that the variant was in the library but no mating with the target was seen in that replicate; the authors take this as a sign of poor binding, and no number exists.

With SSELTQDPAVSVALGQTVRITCEGDSLRYAYANWYQQKPGQAPILVIYGKNNRPSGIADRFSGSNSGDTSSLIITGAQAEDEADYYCSSRDSSGFQQFFGAGTKLTVL the result was 2.46, 2.45, 1.35 (controls 3 of 9).
With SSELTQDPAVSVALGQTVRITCERDSLRYYYANWYQQKPGQAPILVIYGKWNRPSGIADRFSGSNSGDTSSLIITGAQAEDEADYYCSSRDSSGFQVLFGAGTKLTVL the result was nd, nd, nd (controls 4 of 9).
With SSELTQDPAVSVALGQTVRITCEGDSLRYQYANWYQQKPGQAPILVIYGKNNRPSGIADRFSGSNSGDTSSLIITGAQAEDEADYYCSSRPSSGAQVFFGAGTKLTVL the result was 1.96, 1.85, 1.69 (controls 7 of 9).
With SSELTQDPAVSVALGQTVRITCEGDSLRYYYANWYQQKPGQAPILVIYGKNNGGSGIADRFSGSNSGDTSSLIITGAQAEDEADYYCSSRDSSGFQVFFGAGTKLTVL the result was 3.02, nd, 3.22 (controls 2 of 9).
With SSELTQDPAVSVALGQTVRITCEGFSLRYYYANWYQQKPGQAPILVIYGKMNRPSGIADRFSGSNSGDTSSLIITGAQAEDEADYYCSSRDSSGFQVFFGAGTKLTVL the result was nd, 4.57, nd (controls 3 of 9).
With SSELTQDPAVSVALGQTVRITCEGDSLRYAYANWYQQKPGQAPILVIYGKNNLPSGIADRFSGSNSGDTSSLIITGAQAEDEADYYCSERDSSGFQVFFGAGTKLTVL the result was nd, nd, nd (controls 1 of 9).
With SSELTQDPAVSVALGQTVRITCEGDSLRYFHANWYQQKPGQAPILVIYGKNNAPSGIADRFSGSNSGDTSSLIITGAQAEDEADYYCSSRDSSGFQVFFGAGTKLTVL the result was 3.23, 3.72, 2.91 (controls 2 of 9).
With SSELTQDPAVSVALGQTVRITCEGDSLRYYYRPWYQQKPGQAPILVIYGKNNRPSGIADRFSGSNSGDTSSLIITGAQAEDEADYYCSSRDSSGFRVFFGAGTKLTVL the result was nd, 3.17, nd (controls 0 of 9).
With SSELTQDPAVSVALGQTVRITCEGDSWRYYYHNWYQQKPGQAPILVIYGKNNRPSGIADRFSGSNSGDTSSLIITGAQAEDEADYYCSSRDSSGFQVFFGAGTKLTVL the result was nd, nd, nd (controls 1 of 9).
With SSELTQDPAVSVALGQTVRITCEGDSLRYYYANWYQQKPGQAPILVIYGKNNRSSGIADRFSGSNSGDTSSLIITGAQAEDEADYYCSDRDSSGFQCFFGAGTKLTVL the result was 4.17, 5.41, nd (controls 2 of 9).
With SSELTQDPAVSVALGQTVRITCEGDSLRYYYQNWYQQKPGQAPILVIYGKRNRPSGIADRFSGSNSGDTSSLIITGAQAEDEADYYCSSRDSVGFQVFFGAGTKLTVL the result was nd, 3.20, nd (controls 2 of 9).
With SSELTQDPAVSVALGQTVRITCEGDSLRYYYANWYQQKPGQAPILVIYGKENRPSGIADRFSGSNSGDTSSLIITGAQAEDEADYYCSSRFSSGFHVFFGAGTKLTVL the result was nd, nd, nd (controls 0 of 9).
With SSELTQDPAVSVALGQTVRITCEAGSLRYYYRNWYQQKPGQAPILVIYGKNNRPSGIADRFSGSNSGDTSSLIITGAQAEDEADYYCSSRDSSGFQVFFGAGTKLTVL the result was nd, nd, nd (controls 1 of 9).
With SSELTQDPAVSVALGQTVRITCEGDSLGYYYAPWYQQKPGQAPILVIYGKNNRPSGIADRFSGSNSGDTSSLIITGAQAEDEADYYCSSRDSSGFQSFFGAGTKLTVL the result was nd, nd, nd (controls 1 of 9).
With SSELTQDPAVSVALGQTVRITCEGDSLRYYYAYWYQQKPGQAPILVIYGKGNRPSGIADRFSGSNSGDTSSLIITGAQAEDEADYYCASRDSSGFQVFFGAGTKLTVL the result was 2.70, 2.28, 2.74 (controls 4 of 9).
With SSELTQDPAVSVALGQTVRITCEGDSLRYYYANWYQQKPGQAPILVIYLCNNRPSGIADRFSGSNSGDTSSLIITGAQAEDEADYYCSSRDWSGFQVFFGAGTKLTVL the result was nd, nd, nd (controls 4 of 9).
With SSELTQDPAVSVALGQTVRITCEGPFLRYYYANWYQQKPGQAPILVIYGKFNRPSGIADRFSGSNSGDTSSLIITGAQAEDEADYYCSSRDSSGFQVFFGAGTKLTVL the result was 3.46, 5.32, 4.18 (controls 5 of 9).
With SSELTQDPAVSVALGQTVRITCLGDSLRYYYANWYQQKPGQAPILVIYGKNNRPCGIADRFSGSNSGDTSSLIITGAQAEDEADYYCLSRDSSGFQVFFGAGTKLTVL the result was nd, nd, 4.22 (controls 3 of 9).
With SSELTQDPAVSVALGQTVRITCEGDSIRYYYANWYQQKPGQAPILVIYGKNNRPFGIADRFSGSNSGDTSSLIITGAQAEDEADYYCSSRDSSGFQVSFGAGTKLTVL the result was 3.74, nd, nd (controls 2 of 9).
With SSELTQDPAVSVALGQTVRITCEIDSERYYYANWYQQKPGQAPILVIYGKNNRPSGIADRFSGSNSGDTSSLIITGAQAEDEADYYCSSRDSSGFPVFFGAGTKLTVL the result was 2.56, 2.97, 3.16 (controls 6 of 9).
With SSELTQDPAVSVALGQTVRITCEGDSLRYYYANWYQQKPGQAPILVIYKKNNRSSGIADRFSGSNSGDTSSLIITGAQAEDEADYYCSSHDSSGFQVFFGAGTKLTVL the result was nd, 4.60, nd (controls 5 of 9).
With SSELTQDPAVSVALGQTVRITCEGDSLRYYYKLWYQQKPGQAPILVIYGKNNRPSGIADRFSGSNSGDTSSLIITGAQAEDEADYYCSSRDSSNFQVFFGAGTKLTVL the result was nd, nd, nd (controls 0 of 9).
With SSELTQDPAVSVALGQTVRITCEGDQLRYYYRNWYQQKPGQAPILVIYGKNNRPSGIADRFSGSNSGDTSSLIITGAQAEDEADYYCSSRDSSGFQVFFGAGTKLTVL the result was 3.21, 4.08, 2.60 (controls 4 of 9).
With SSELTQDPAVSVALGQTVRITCEGDPLRYYYANWYQQKPGQAPILVIYGKNNQPSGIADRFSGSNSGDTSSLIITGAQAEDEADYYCSSRDSSGCQVFFGAGTKLTVL the result was 2.58, 2.52, 1.94 (controls 0 of 9).

A selection of 4 entries from above:

For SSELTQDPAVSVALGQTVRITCEGDSLRYFHANWYQQKPGQAPILVIYGKNNAPSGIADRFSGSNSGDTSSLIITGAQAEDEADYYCSSRDSSGFQVFFGAGTKLTVL, the assay gave 3.23, 3.72, 2.91 (controls 2 of 9).
For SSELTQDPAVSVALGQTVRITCEGDSLRYAYANWYQQKPGQAPILVIYGKNNLPSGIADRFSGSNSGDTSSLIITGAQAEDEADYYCSERDSSGFQVFFGAGTKLTVL, the assay gave nd, nd, nd (controls 1 of 9).
For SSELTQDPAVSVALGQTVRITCEAGSLRYYYRNWYQQKPGQAPILVIYGKNNRPSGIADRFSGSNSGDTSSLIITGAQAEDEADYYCSSRDSSGFQVFFGAGTKLTVL, the assay gave nd, nd, nd (controls 1 of 9).
For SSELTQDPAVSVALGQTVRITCERDSLRYYYANWYQQKPGQAPILVIYGKWNRPSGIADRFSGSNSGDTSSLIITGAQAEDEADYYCSSRDSSGFQVLFGAGTKLTVL, the assay gave nd, nd, nd (controls 4 of 9).

For reference, the parent read 2.31 as the reference entry and 2.25 as a member of this library. Three control strains display no target. For library AAYL52, 28% of the pairings with them gave a signal, with a median of 3.91 and one signal in twenty below 2.90, so weak values seen in few replicates may be background. The control count says in how many pairings with the empty strains this scFv gave a signal.

Source: Engelhart et al. 2022 (doi:10.1038/s41597-022-01779-4), MIT Lincoln Laboratory and A-Alpha Bio; data file from the FLAb repository.